From patent US9890152B2 (Genentech, Inc., priority 2012, dated 2018)

Sequences of proteins named here, by UniProt entry; tags and fusion partners are left off. Residues count along the entry.
UniProt P00533, 25-1210 T790M/L858R limits assumed: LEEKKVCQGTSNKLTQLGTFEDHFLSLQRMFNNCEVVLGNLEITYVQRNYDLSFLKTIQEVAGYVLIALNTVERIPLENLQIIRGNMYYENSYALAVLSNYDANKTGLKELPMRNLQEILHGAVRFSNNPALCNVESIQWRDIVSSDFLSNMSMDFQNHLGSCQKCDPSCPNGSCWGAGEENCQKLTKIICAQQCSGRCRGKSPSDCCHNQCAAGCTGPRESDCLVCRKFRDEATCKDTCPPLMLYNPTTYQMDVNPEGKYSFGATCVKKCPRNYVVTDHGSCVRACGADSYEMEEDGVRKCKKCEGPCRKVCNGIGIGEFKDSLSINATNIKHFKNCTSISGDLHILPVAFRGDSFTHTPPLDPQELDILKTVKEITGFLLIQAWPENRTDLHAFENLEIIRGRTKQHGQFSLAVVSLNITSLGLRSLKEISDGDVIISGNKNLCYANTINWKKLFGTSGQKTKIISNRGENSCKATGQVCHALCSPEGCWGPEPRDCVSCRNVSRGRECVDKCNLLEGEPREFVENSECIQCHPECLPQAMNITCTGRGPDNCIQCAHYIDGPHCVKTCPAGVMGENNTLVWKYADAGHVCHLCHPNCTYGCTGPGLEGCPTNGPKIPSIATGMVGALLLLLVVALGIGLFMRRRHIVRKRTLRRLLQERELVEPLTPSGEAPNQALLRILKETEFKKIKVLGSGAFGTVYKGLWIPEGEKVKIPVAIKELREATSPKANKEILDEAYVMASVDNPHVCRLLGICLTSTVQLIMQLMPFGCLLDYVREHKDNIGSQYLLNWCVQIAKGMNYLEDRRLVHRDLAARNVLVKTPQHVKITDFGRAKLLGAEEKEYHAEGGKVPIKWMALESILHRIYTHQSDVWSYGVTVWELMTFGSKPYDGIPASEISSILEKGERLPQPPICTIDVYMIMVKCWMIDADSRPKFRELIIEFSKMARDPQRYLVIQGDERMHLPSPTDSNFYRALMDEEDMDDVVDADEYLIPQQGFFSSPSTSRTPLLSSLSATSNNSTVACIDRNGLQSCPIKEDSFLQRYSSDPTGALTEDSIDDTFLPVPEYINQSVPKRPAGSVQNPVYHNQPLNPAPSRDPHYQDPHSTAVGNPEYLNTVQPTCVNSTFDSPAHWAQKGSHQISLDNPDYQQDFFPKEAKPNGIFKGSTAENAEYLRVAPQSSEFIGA

biological target: EGFR T790M L858R (Homo sapiens, UniProt P00533, L858R/T790M); test: biochemical; conditions: EGFR(T790M/L858R) Ki (μM), 5 μM ATP, 30 min, room temperature; apparent Ki (Morrison) converted by Cheng-Prusoff, Km of ATP 1.3 μM

Row | Structure (SMILES) | Ki [µM]
1 | CNC(=O)C(C)(C)CNc1nccc(Nc2cc3c(cn2)nc(C)n3C(C)C)n1 [Example 463, 3-(4-(1-isopropyl-2-methyl-1H-imidazo[4,5-c]pyridin-6-ylamino)pyrimidin-2-ylamino)-N,2,2-trimethylpropanamide] | 0.345
2 | Cc1nc2cnc(Nc3ccnc(-c4cnn(S(=O)(=O)C5CC5CO)c4)n3)cc2n1C(C)C (stereo not shown) [Example 464, (2-(4-(4-(1-isopropyl-2-methyl-1H-imidazo[4,5-c]pyridin-6-ylamino)pyrimidin-2-yl)-1H-pyrazol-1-ylsulfonyl)cyclopropyl)methanol] | 0.0172
3 | Cc1nc2cnc(Nc3ccnc(-c4cnn(S(=O)(=O)C5CNC(=O)C5)c4)n3)cc2n1C(C)C (stereo not shown) [Example 465, 4-(4-(4-(1-isopropyl-2-methyl-1H-imidazo[4,5-c]pyridin-6-ylamino)pyrimidin-2-yl)-1H-pyrazol-1-ylsulfonyl)pyrrolidin-2-one] | 0.00224
4 | CC(=O)N1CC(S(=O)(=O)n2cc(-c3nccc(Nc4cc5c(cn4)nc(C)n5C(C)C)n3)cn2)C1 [Example 466, 1-(3-(4-(4-(1-isopropyl-2-methyl-1H-imidazo[4,5-c]pyridin-6-ylamino)pyrimidin-2-yl)-1H-pyrazol-1-ylsulfonyl)azetidin-1-yl)ethanone] | 0.0381
5 | Cc1nc2cnc(Nc3ccnc(-c4cnn(S(=O)(=O)C5CNC5)c4)n3)cc2n1C(C)C [Example 467, N-(2-(1-(azetidin-3-ylsulfonyl)-1H-pyrazol-4-yl)pyrimidin-4-yl)-1-isopropyl-2-methyl-1H-imidazo[4,5-c]pyridin-6-amine] | 0.00629
6 | Cc1nc2cnc(Nc3ccnc(-c4cnn(S(=O)(=O)C5CN(C)C5)c4)n3)cc2n1C(C)C [Example 468, 1-isopropyl-2-methyl-N-(2-(1-(1-methylazetidin-3-ylsulfonyl)-1H-pyrazol-4-yl)pyrimidin-4-yl)-1H-imidazo[4,5-c]pyridin-6-amine] | 0.0563
7 | CC(C)n1c(C(F)F)nc2cnc(Nc3ccnc(-c4cnn(S(=O)(=O)C(C)C)c4)n3)cc21 [Example 469, 2-(difluoromethyl)-1-isopropyl-N-(2-(1-(isopropylsulfonyl)-1H-pyrazol-4-yl)pyrimidin-4-yl)-1H-imidazo[4,5-c]pyridin-6-amine] | 0.0159
8 | CC(C)n1c(CO)nc2cnc(Nc3ccnc(-c4cnn(CC(C)(C)CO)c4)n3)cc21 [Example 470, 3-(4-(4-(2-(hydroxymethyl)-1-isopropyl-1H-imidazo[4,5-c]pyridin-6-ylamino)pyrimidin-2-yl)-1H-pyrazol-1-yl)-2,2-dimethylpropan-1-ol] | 0.0758
9 | CC(C)n1c(CO)nc2cnc(Nc3ccnc(-c4cnn(CC(C)(C)C(N)=O)c4)n3)cc21 [Example 471, 3-(4-(4-(2-(hydroxymethyl)-1-isopropyl-1H-imidazo[4,5-c]pyridin-6-ylamino)pyrimidin-2-yl)-1H-pyrazol-1-yl)-2,2-dimethylpropanamide] | 0.0675
10 | CC(C)(CCO)n1c(CO)nc2cnc(Nc3ccnc(-c4cnn(S(=O)(=O)C5CC5)c4)n3)cc21 [Example 472, 3-(6-(2-(1-(cyclopropylsulfonyl)-1H-pyrazol-4-yl)pyrimidin-4-ylamino)-2-(hydroxymethyl)-1H-imidazo[4,5-c]pyridin-1-yl)-3-methylbutan-1-ol] | 0.0291
11 | CN1CC(n2c(CO)nc3cnc(Nc4ccnc(-c5cnn(S(=O)(=O)C6CC6)c5)n4)cc32)CC1=O (stereo not shown) [Example 476, 4-(6-(2-(1-(cyclopropylsulfonyl)-1H-pyrazol-4-yl)pyrimidin-4-ylamino)-2-(hydroxymethyl)-1H-imidazo[4,5-c]pyridin-1-yl)-1-methylpyrrolidin-2-one] | 0.0909
12 | CC1(n2c(CO)nc3cnc(Nc4ccnc(-c5cnn(S(=O)(=O)C6CC6)c5)n4)cc32)CCCC1 [Example 477, (6-(2-(1-(cyclopropylsulfonyl)-1H-pyrazol-4-yl)pyrimidin-4-ylamino)-1-(1-methylcyclopentyl)-1H-imidazo[4,5-c]pyridin-2-yl)methanol] | 0.00163
13 | CC(C)CC(C)n1c(CO)nc2cnc(Nc3ccnc(-c4cnn(S(=O)(=O)C5CC5)c4)n3)cc21 (stereo not shown) [Example 478, (6-(2-(1-(cyclopropylsulfonyl)-1H-pyrazol-4-yl)pyrimidin-4-ylamino)-1-(4-methylpentan-2-yl)-1H-imidazo[4,5-c]pyridin-2-yl)methanol] | 0.0257
14 | O=S(=O)(C1CC1)n1cc(-c2nccc(Nc3cc4c(cn3)nc(CO)n4C3CCCCC3)n2)cn1 [Example 479, (1-cyclohexyl-6-(2-(1-(cyclopropylsulfonyl)-1H-pyrazol-4-yl)pyrimidin-4-ylamino)-1H-imidazo[4,5-c]pyridin-2-yl)methanol] | 0.00466
15 | O=S(=O)(C1CC1)n1cc(-c2nccc(Nc3cc4c(cn3)nc(CO)n4C3CC(F)(F)C3)n2)cn1 [Example 480, (6-(2-(1-(cyclopropylsulfonyl)-1H-pyrazol-4-yl)pyrimidin-4-ylamino)-1-(3,3-difluor^oCyclobutyl)-1H-imidazo[4,5-c]pyridin-2-yl)methanol] | 0.471
16 | O=S(=O)(C1CC1)n1cc(-c2nccc(Nc3cc4c(cn3)nc(CO)n4C3CCCC3)n2)cn1 [Example 481, (1-cyclopentyl-6-(2-(1-(cyclopropylsulfonyl)-1H-pyrazol-4-yl)pyrimidin-4-ylamino)-1H-imidazo[4,5-c]pyridin-2-yl)methanol] | 0.0104

Row | Structure (SMILES) | Ki [µM]
17 | O=S(=O)(C1CC1)n1cc(-c2nccc(Nc3cc4c(cn3)nc(CO)n4C3CCC(F)(F)C3)n2)cn1 (stereo not shown) [Example 482, (6-((2-(1-(cyclopropylsulfonyl)-1H-pyrazol-4-yl)pyrimidin-4-yl)amino)-1-(3,3-difluorocyclopentyl)-1H-imidazo[4,5-c]pyridin-2-yl)methanol] | 0.138
18 | O=S(=O)(C1CC1)n1cc(-c2nccc(Nc3cc4c(cn3)nc(CO)n4CCC(F)(F)F)n2)cn1 [Example 483, (6-(2-(1-(cyclopropylsulfonyl)-1H-pyrazol-4-yl)pyrimidin-4-ylamino)-1-(3,3,3-trifluoropropyl)-1H-imidazo[4,5-c]pyridin-2-yl)methanol] | 0.0186
19 | CC1(n2c(CO)nc3cnc(Nc4ccnc(-c5cnn(S(=O)(=O)C6CC6)c5)n4)cc32)CCC1 [Example 484, (6-(2-(1-(cyclopropylsulfonyl)-1H-pyrazol-4-yl)pyrimidin-4-ylamino)-1-(1-methylcyclobutyl)-1H-imidazo[4,5-c]pyridin-2-yl)methanol] | 0.00124
20 | CC(C)(C)n1c(CO)nc2cnc(Nc3ccnc(-c4cnn(S(=O)(=O)C5CC5)c4)n3)cc21 [Example 485, (1-tert-butyl-6-(2-(1-(cyclopropylsulfonyl)-1H-pyrazol-4-yl)pyrimidin-4-ylamino)-1H-imidazo[4,5-c]pyridin-2-yl)methanol] | 0.0026
21 | O=S(=O)(C1CC1)n1cc(-c2nccc(Nc3cc4c(cn3)nc(CO)n4CCc3ccccc3)n2)cn1 [Example 486, (6-(2-(1-(cyclopropylsulfonyl)-1H-pyrazol-4-yl)pyrimidin-4-ylamino)-1-phenethyl-1H-imidazo[4,5-c]pyridin-2-yl)methanol] | 0.17
22 | CC(C)C(C)n1c(CO)nc2cnc(Nc3ccnc(-c4cnn(S(=O)(=O)C5CC5)c4)n3)cc21 (stereo not shown) [Example 487, (6-(2-(1-(cyclopropylsulfonyl)-1H-pyrazol-4-yl)pyrimidin-4-ylamino)-1-(3-methylbutan-2-yl)-1H-imidazo[4,5-c]pyridin-2-yl)methanol] | 0.00895
23 | CC(CC1CC1)n1c(CO)nc2cnc(Nc3ccnc(-c4cnn(S(=O)(=O)C5CC5)c4)n3)cc21 (stereo not shown) [Example 488, (1-(1-cyclopropylpropan-2-yl)-6-(2-(1-(cyclopropylsulfonyl)-1H-pyrazol-4-yl)pyrimidin-4-ylamino)-1H-imidazo[4,5-c]pyridin-2-yl)methanol] | 0.00303
24 | COC1CCN(c2nccc(Nc3cc4c(cn3)nc(C)n4C(C)CO)n2)CC1 (stereo not shown) [Example 489, 2-{6-[2-(4-Methoxypiperidin-1-yl)pyrimidin-4-ylamino]-2-methyl-imidazo[4,5-c]pyridin-1-yl}propan-1-ol] | 0.0841
25 | COC[C@H](C)n1c(C)nc2cnc(Nc3ccnc(N4CCC(OC)CC4)n3)cc21 [Example 490, [1-((S)-2-Methoxy-1-methylethyl)-2-methyl-1H-imidazo [4,5-c]pyridin-6-yl]-[2-(4-methoxypiperidin-1-yl)pyrimidin-4-yl]amine] | 0.0848
26 | COCCC(C)n1c(C)nc2cnc(Nc3ccnc(N4CCC(OC)CC4)n3)cc21 (stereo not shown) [Example 491, [1-(3-Methoxy-1-methylpropyl)-2-methyl-1H-imidazo[4,5-c]pyridin-6-yl]-[2-(4-methoxypiperidin-1-yl)pyrimidin-4-yl]amine] | 0.0692
27 | COC1CCN(c2nccc(Nc3cc4c(cn3)nc(C)n4C(C)CCO)n2)CC1 (stereo not shown) [Example 492, 3-{6-[2-(4-Methoxypiperidin-1-yl)pyrimidin-4-ylamino]-2-methylimidazo[4,5-c]pyridin-1-yl}butan-1-ol] | 0.0498
28 | CO[C@H]1C[C@H]2CC[C@@H](C1)N2c1nccc(Nc2cc3c(cn2)nc(C)n3C(C)C)n1 [Example 493, (1-Isopropyl-2-methyl-1H-imidazo[4,5-c]pyridin-6-yl)-[2-((1RS,3RS,5SR)-3-methoxy-8-azabicyclo[3.2.1]oct-8-yl)pyrimidin-4-yl]amine] | 0.0398
29 | COC1CCN(c2nccc(Nc3cc4c(cn3)nc(C)n4-c3ccccc3)n2)CC1 [Example 494, N-(2-(4-Methoxypiperidin-yl)pyrimidin-4-yl)-2-methyl-1-phenyl-1H-imidazo[4,5-c]pyridin-6-amine] | 0.00851
30 | Cc1nc2cnc(Nc3ccnc(N4CCC5(CCO5)CC4)n3)cc2n1C(C)C [Example 495, N-(2-(1-Oxa-7-azaspiro[3.5]nonan-7-yl)pyrimidin-4-yl)-1-isopropyl-2-methyl-1H-imidazo[4,5-c]pyridin-6-amine] | 0.0139
31 | Cc1nc2cnc(Nc3ccnc(N4Cc5c[nH]nc5C4)n3)cc2n1C(C)C [Example 496, 1-Isopropyl-2-methyl-N-(2-(pyrrolo[3,4-c]pyrazol-5(2H,4H,6H)-yl)pyrimidin-4-yl)-1H-imidazo[4,5-c]pyridin-6-amine] | 0.0566
